Literature values as cited in publication PMC11739085, “A novel non-invasive murine model for rapidly testing drug activity via inhalation administration against Mycobacterium tuberculosis” (Frontiers in Pharmacology, 2025).

Design: method as in Grewal et al., 2018; Grosset et al., 1992; Lyons et al., 2013
Conditions: mice, oral administration; ref Grewal et al., 2018; Grosset et al., 1992; Lyons et al., 2013; cited from earlier work

For `CO[C@H]1/C=C/O[C@@]2(C)Oc3c(C)c(O)c4c(O)c(c(/C=N/N5CCN(C)CC5)c(O)c4c3C2=O)NC(=O)/C(C)=C\C=C\[C@H](C)[C@H](O)[C@@H](C)[C@@H](O)[C@@H](C)[C@H](OC(C)=O)[C@@H]1C` [RIF, rifampicin], the “time of highest plasma concentration post-administration” value is listed as 1.33 h.
